Experimental data from patent US5434256A, “Diamine platinum complexes as antitumor agents” (priority 1994, dated 1995).

Assay: Renal and hematological toxicity, single i.p. dose (Table 8)
Settings: single i.p. dose (mg/kg): 1,4-DACH-Pt^II CBDCA 300, 1,4-DACH-Pt^IV Cl4 8.0, Tetraplatin 8.0, Cis-platin 12.0, Carboplatin 150

Cis- 1,4-diaminocyclohexane- 1,1-cyclobutanedicarboxylato-platinum(II).H2 O
Survivors on d.14: 5/5
